Ab-14 heavy chain CDR variants: yeast mating affinities

From the AlphaSeq antibody data of Li et al. 2023 (doi:10.1038/s41467-023-39022-2), copy in the FLAb collection.

Target: peptide PDVDLGDISGINAS, taken from heptad repeat 2 (HR2) of SARS-CoV-2 spike.

The variants keep the light chain, the linker and the frameworks of Ab-14 (scFv order VH, a (GGGGS)3 linker, VL).
VH: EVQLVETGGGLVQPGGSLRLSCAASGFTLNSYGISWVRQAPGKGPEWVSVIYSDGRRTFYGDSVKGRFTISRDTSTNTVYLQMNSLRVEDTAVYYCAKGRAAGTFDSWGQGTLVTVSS
VL: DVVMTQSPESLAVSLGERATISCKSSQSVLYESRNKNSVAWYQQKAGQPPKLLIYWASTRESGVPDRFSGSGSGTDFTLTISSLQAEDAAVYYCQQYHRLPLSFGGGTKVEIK

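These sequences belong to a second round, designed from the earlier measurements on random variants of the parent. Group labels follow the data file (Ctrl: baseline library sampled from a position-specific scoring matrix, with some repeated check sequences; Rand: our label for a block that the file lists under HC and that is probably the random mutants of the ten best first-round binders; En: ensemble of fine-tuned language models; GP: Gaussian process model; GPLM: also part of the Gaussian process libraries; HC: hill climbing; Gen: genetic algorithm; Gibbs: Gibbs sampling; a sequence that several methods proposed may carry one label only). AlphaSeq pools MATa yeast showing the antibodies with MATalpha yeast showing the peptide. Mating (16 h, 30 °C) was followed by selection of diploids and sequencing of their barcodes. Read counts were normalised to the haploid input and turned into Kd by a linear fit to BCL2-family pairs of known affinity, for each replicate. Mating was done six times.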

The parent's heavy chain CDRs are GFTLNSYGIS, VIYSDGRRTFYGDSVK, GRAAGTFDS; each variant's own CDRs replace them letter for letter. Affinities are written as log10 Kd with Kd in nM; a lower number is a better binder. Replicates are averaged; those with no signal do not enter the mean. "not detected" means that the variant was in the library but no mating with the target was seen in any replicate; the authors take this as a sign of poor binding, and no number exists.

CDR-H1,CDR-H2,CDR-H3,group,"log10 Kd (nM), mean",replicates with signal,control signals
GFTLNEYGIS,VIYSDGRRAFYTDSVK,GRFRGGFDS,Rand,1.80,2/6,1/18
GFDLEDYGIS,VIYADGRRTFYADSVK,GNVAGTFDV,En_HC,0.28,6/6,0/18
GFTLNEYGIS,VIYSDGRRTFYTDSVK,GHEAGTFDS,GP_HC,0.80,3/6,0/18
GFTLNEYGIS,VIYSDGARTFYTDSVK,GRFAGTFDS,Rand,0.85,5/6,0/18
GFDLNEYGIS,VIYADGKRTAYADSVK,GGNAGTFDQ,En_Gen,-0.25,6/6,0/18
GFDLNEYGIS,VIYADGRRTFYSDSVK,GQNAGTFDM,En_HC,-0.45,6/6,1/18
GFDLDEYGIS,VIYADGSRTAYADSVK,GANAGTFDV,En_Gen,-0.32,6/6,0/18
GFDLNSYGIS,VIYSDGRRTFYVDRVK,GQAAGTFDS,GP_Gibbs,3.85,1/6,0/18
GHDLNEYGIS,VIYADGKRSYYAQDVK,GQNIGQGTD,En_Gibbs,1.07,1/6,0/18
GFDLNEYGIS,VIYADGVRTYYADSVK,GNQAGTFDV,En_Gen,0.23,6/6,0/18
GFDLNEYGIS,VIYADGRRTFYTDSVK,GEVAGTFDV,En_HC,-0.39,6/6,0/18
GFGLDEYGIS,VIYADGRRTAYADSVK,GENAGTFLM,En_HC,1.00,6/6,1/18
GFDLNSYGIS,VIYADGRRTFYGDSVK,GREAGTFDS,Ctrl+GP_Gibbs,-0.37,12/12,0/36
GFDLNSYGIS,VIYSDGRRTFYGDSVK,GKTAGTFDN,GP_Gen,0.12,6/6,0/18
GFQLTEYGIS,VIYADGRRTAYSQSVK,GLNGGIIDV,En_Gibbs,not detected,0/6,0/18
GFDLNEYGIS,VIYADGMRTFYVDSVK,GENAGTFDV,En_Gen,0.47,6/6,0/18
GFSLNSYGIS,VIYSDGRRTAYGDHVK,GRTAGTFDS,GP_Gen,0.06,6/6,0/18
GFTLNEYGIS,VIYSDGRRTFYGDSVK,GRAAVTFDC,GPLM_HC,not detected,0/6,0/18
GFNLNSYGIS,VIYSDGRRTFYADDVK,GQEAGTFDS,GP_Gibbs,-0.40,6/6,0/18
GFDLNEYGIS,VIYADGRRTQYIDSVK,GETAGTFDN,En_HC,not detected,0/6,0/18
GFDLNSYGIS,VIYSDGRRTFYGDSVK,GREAGTFNS,GPLM_HC,0.36,6/6,0/18
FFTLNEYGIS,VIYADGRRTFYGDSVK,GRAAGTNKS,Rand,not detected,0/6,0/18
GFDLNEYGIS,VIYADGMRTAYADSVK,GQVAGTFDM,En_Gen,-0.75,6/6,0/18
GFDLNSYGIS,VIYSDGRRTFYIDDVK,GNAAGTFDS,GP_Gen,-0.06,6/6,0/18
GFDLDEYGIS,VIYADGMRTFYADSVK,GNIAGTFLV,En_HC,0.05,6/6,1/18
GFDLNEYGIS,VIYADGMRTAYADNVK,GENAGTFDQ,En_Gen,-0.29,6/6,1/18
GFDIQDYGIS,VIYADGSRTAYVNNAK,GLWGATLDV,En_Gibbs,not detected,0/6,0/18
GFDLNEYGIS,VIYADGVRTAYSDSVK,GEVAGTFDT,En_Gen,-0.39,6/6,2/18
GFGLGEYGIS,VIYADGTRAAYVTKVK,GSIAGTFFT,En_Gibbs,2.69,1/6,0/18
GFVLNSYGIS,VIYSDGRRTFYIDSVK,GREAGTFDS,GP_Gibbs,not detected,0/6,0/18
GFDLNEYGIS,VIYADGQRTAYADSVK,GNVAGTFDE,En_Gen,-0.72,6/6,0/18
GFSLNSYGIS,VIYADGRRTFYGDSVK,GEAAGTFDS,GPLM_Gen,0.16,6/6,0/18
GFQLDEYGIS,VIYADGMRTAYSDSFK,GVVSTKIGI,En_Gibbs,not detected,0/6,0/18
GFDLNEYGIS,VIYADGRRKFYADSVK,GQLAGTFDQ,En_HC,-0.31,6/6,0/18
GFTLNSYGIS,VIYSDGRRTFYTDSVK,GQVAGKFDS,GP_HC,1.54,2/6,0/18
GFDLNEYGIS,VIYADGKRTFYSDSVK,GQTAGTFDE,En_HC,-0.24,6/6,2/18
GFTLNSYGIS,VIYSDGRRTFYQDSVR,GRAAGTFDS,Ctrl,not detected,0/6,0/18
GRNLDEYGIS,VIYADGQRTSYIDNVK,GGDAVDFDM,En_Gibbs,2.37,1/6,0/18
GFTLNEYGIS,VIYSDGRRTFYTDSVK,GRFAGTPDS,Rand,not detected,0/6,0/18
GFTLDEYGIS,VIYADGRRTFYADSVK,GNVAGTFDL,En_HC,-0.74,6/6,0/18
GFTLNSYGIS,VIYSDGRRTFYGDRVK,GQEAGTFDK,GP_Gibbs,1.05,4/6,0/18
GFDLDEYGIS,VIYADGRRTFYQDSVK,GNAAGTFDQ,En_HC,-0.26,6/6,0/18
GFDLNSYGIS,VIYSDGRRTFYQDQVK,GRTAGTFDS,GP_Gen,0.45,6/6,0/18
GFTLNSYGIS,VIYSDGRRTFYGDSVK,GGEAGTFDT,GPLM_Gen,0.17,6/6,1/18
GKDLNSYGIS,VIYSDGRRTFYGDEVK,GRTAGTFDS,GP_Gibbs,0.91,5/6,0/18
GFTLNSYGIS,VIYSDGRRTFYSDDVK,GRATGTFDG,Ctrl,0.47,3/6,1/18
GFDINEYGIS,VIYADGRRTAYADSVK,GENAGTFDS,En_HC,-0.13,6/6,0/18
GFSLNEYGIS,VIYADGMRTRYAQNFK,GYNSSDLTV,En_Gibbs,1.91,1/6,0/18
GFDLNEYGIS,VIYADGLRSAYTDEVK,GKGDVIVFH,En_Gibbs,not detected,0/6,0/18
GFTLNEYGIS,VIYSDGRRTFYGQSVK,GRAAVTFDT,GP_HC,not detected,0/6,0/18
GFDLNEYGIS,VIYADGMRKAYADDVK,GENAGTFDL,En_Gen,-0.86,6/6,0/18
GFDLNEYGIS,VIYADGVRTAYADDVK,GQNAGTFDT,En_Gen,-0.64,6/6,1/18
GFGLNEYGIS,VIYSDGLRTFYGDSVK,GREAGTFDS,Ctrl,0.06,6/6,0/18
GFTLNDYGIS,VIYSDGRRTHYADSVK,GRAAGTFDS,GP_HC,0.79,6/6,0/18
GFDLNEYGIS,VIYADGRRTFYADSVK,GEVAGTFLS,En_HC,0.07,6/6,0/18
GFVLNDYGIS,VIYSDGRRTFYTDSVK,GRTAGTFDS,GP_Gibbs,0.88,4/6,0/18
GFDLNEYGIS,VIYADGMRTFYADKVK,GNVAGTFDV,En_Gen,-0.59,6/6,0/18
GFNLNSYGIS,VIYSDGRRTFYGDSVK,GRTAGTFDQ,GP_Gen,0.95,6/6,1/18
GFELEEYGIS,VIYADGQRTFYADNVK,GKVDTVVHY,En_Gibbs,-0.10,6/6,1/18
GFSLNSYGIS,VIYSDGRRTFYGDSVK,GHAAGTFDA,GP_Gibbs,0.35,6/6,0/18
GFTLNDYGIS,VIYSDGRRTSYDDSVK,GHAACTFDS,Ctrl,not detected,0/6,0/18
GFDLNEYGIS,VIYADGRRTAYADSVK,GQVAGTFNM,En_HC,-0.56,6/6,1/18
GFDLEQYGIS,VIYADGVRTAYSQNSK,GDDGIAVDI,En_Gibbs,not detected,0/6,0/18
GFDLNEYGIS,VIYADGMRTFYADNVK,GEVAGTFDL,En_Gen,-0.59,6/6,0/18
GFTLNSYGIS,VIYSDGRRTFYGDSVK,GVAAGTWDS,Ctrl,not detected,0/6,0/18
GFTLNHYGIS,VIYSDGRRTQYIHSVK,GRAAGTFDS,Rand,not detected,0/6,0/18
GFQLNEYGIS,VIYADGRRTFYGDSVK,GRAAGTFDS,GP_HC,0.02,6/6,0/18
GFGLNSYGIS,VIYSDGRRTFYGDSVK,GQAAGTFDS,GPLM_Gen,0.17,2/6,1/18
GFDLNEYGIS,VIYADGLRTSYADSVK,GTNAGTFDQ,En_HC,-1.78,5/6,0/18
GFDINEYGIS,VIYADGRRKAYADSVK,GIDVYGKTV,En_Gibbs,not detected,0/6,0/18
GKTLNSYVIF,VIYADGRRTFYGDSVK,GRAAGTNKS,Rand,2.81,1/6,0/18
GQQLDEYGIS,VIYADGVRKSYVDSVK,GEITGTFSQ,En_Gibbs,3.70,1/6,0/18
GFDLNEYGIS,VIYADGVRTYYADSVK,GQNAGTFDI,En_Gen,-0.67,6/6,0/18
GFELNSYGIS,VIYSDGKRTFYADSVK,GRAAGTFDS,GP_Gen,0.87,6/6,0/18
GFDLEDYGIS,VIYADGMRTAYADSVK,GNNAGTFDI,En_Gen,0.01,6/6,0/18
GFQLNEYGIS,VIYSDGRRTFYGDSVK,GKTAGTFDT,GP_Gen,0.34,6/6,0/18
GFPLNSYGIS,VIYSDGMRTFYGDSVK,GRTAGTFDS,GP_Gibbs,2.98,1/6,0/18

The opening 6 entries, copied out:

{"CDR-H1": "GFTLNEYGIS", "CDR-H2": "VIYSDGRRAFYTDSVK", "CDR-H3": "GRFRGGFDS", "group": "Rand", "log10 Kd (nM), mean": "1.80", "replicates with signal": "2/6", "control signals": "1/18"}
{"CDR-H1": "GFDLEDYGIS", "CDR-H2": "VIYADGRRTFYADSVK", "CDR-H3": "GNVAGTFDV", "group": "En_HC", "log10 Kd (nM), mean": "0.28", "replicates with signal": "6/6", "control signals": "0/18"}
{"CDR-H1": "GFTLNEYGIS", "CDR-H2": "VIYSDGRRTFYTDSVK", "CDR-H3": "GHEAGTFDS", "group": "GP_HC", "log10 Kd (nM), mean": "0.80", "replicates with signal": "3/6", "control signals": "0/18"}
{"CDR-H1": "GFTLNEYGIS", "CDR-H2": "VIYSDGARTFYTDSVK", "CDR-H3": "GRFAGTFDS", "group": "Rand", "log10 Kd (nM), mean": "0.85", "replicates with signal": "5/6", "control signals": "0/18"}
{"CDR-H1": "GFDLNEYGIS", "CDR-H2": "VIYADGKRTAYADSVK", "CDR-H3": "GGNAGTFDQ", "group": "En_Gen", "log10 Kd (nM), mean": "-0.25", "replicates with signal": "6/6", "control signals": "0/18"}
{"CDR-H1": "GFDLNEYGIS", "CDR-H2": "VIYADGRRTFYSDSVK", "CDR-H3": "GQNAGTFDM", "group": "En_HC", "log10 Kd (nM), mean": "-0.45", "replicates with signal": "6/6", "control signals": "1/18"}

Three control strains display no target. For all heavy chain designs, 1% of the pairings with them gave a signal, with a median of 2.08 and one signal in twenty below 0.84, so weak values seen in few replicates may be background. Also given: how often the same scFv was detected with the empty control strains. Where one sequence has several entries in the source, the replicates are pooled. The parent sequence was in this pool as ten entries: three were never detected, three once, and four in most replicates, with averages from 0.34 to 2.37. In the paper, a design with two or fewer of six values counts as a poor binder. The range of this assay differs from that of the first round, and the authors advise against merging the two.